Patent US8575091B1, “Amylin analogues and pharmaceutical compositions thereof” (Novo Nordisk A/S, priority 2012, dated 2013)

Target: T1, human amylin receptor (amylin 3(a) receptor: human calcitonin receptor + RAMP-3) (Homo sapiens, UniProt O60896+P30988)
T1 construct: expressed in transfected cells
T1 sequence (P30988 25-474): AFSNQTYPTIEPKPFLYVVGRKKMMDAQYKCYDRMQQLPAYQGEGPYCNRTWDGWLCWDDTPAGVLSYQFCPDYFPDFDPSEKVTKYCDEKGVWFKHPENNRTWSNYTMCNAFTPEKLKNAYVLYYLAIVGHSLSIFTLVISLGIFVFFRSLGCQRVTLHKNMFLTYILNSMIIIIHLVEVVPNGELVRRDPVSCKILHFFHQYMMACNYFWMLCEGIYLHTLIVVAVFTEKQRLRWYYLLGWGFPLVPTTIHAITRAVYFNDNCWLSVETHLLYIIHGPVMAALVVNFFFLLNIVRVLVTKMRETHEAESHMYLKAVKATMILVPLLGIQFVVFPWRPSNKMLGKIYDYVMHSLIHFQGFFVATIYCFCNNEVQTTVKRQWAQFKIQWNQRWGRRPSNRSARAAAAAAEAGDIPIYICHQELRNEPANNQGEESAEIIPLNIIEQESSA
T1 sequence (O60896 24-148 partner): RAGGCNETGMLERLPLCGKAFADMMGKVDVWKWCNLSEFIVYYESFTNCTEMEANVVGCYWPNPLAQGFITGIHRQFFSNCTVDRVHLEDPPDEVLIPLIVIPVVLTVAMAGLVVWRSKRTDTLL
Test: Assay (II)a functional assay, human amylin receptor (CRE luciferase, BHK cells)
Type: cell-based
Conditions: Table 6; human functional selectivity (hCTR EC50 / hAmylin-R EC50)

## CC[C@H](C)[C@H](NC(=O)[C@H](C)NC(=O)CNC(=O)[C@H](Cc1ccccc1)NC(=O)[C@H](CC(N)=O)NC(=O)[C@@H]1CCCN1C(=O)[C@H](CO)NC(=O)[C@H](CO)NC(=O)[C@H](Cc1c[nH]cn1)NC(=O)[C@H](CCCNC(=N)N)NC(=O)[C@H](CC(C)C)NC(=O)[C@H](Cc1ccccc1)NC(=O)[C@H](CC(N)=O)NC(=O)[C@H](C)NC(=O)[C@H](CC(C)C)NC(=O)[C@H](CCCNC(=N)N)NC(=O)[C@H](CCC(N)=O)NC(=O)[C@@H](NC(=O)[C@H](C)NC(=O)[C@@H]1CSSC[C@H](NC(=O)[C@H](CCCCN)NC(=O)CC[C@H](NC(=O)CCCCCCCCCCCCCCCCCCC(=O)O)C(=O)O)C(=O)N[C@@H](CC(N)=O)C(=O)N[C@@H]([C@@H](C)O)C(=O)N[C@@H](C)C(=O)N[C@@H]([C@@H](C)O)C(=O)N1)[C@@H](C)O)C(=O)N1CCC[C@H]1C(=O)N[C@@H](CO)C(=O)N[C@@H](CO)C(=O)N[C@H](C(=O)N[C@@H](CC(N)=O)C(=O)N[C@H](C(=O)NCC(=O)N[C@@H](CO)C(=O)N[C@@H](CC(N)=O)C(=O)N[C@H](C(=O)N[C@@H](Cc1ccc(O)cc1)C(N)=O)[C@@H](C)O)C(C)C)[C@@H](C)O [Example 21]
  Ratio hCT/hAmylin funct.: 4.1
